For one substance, IC80 results are on record in article PMC12526156, “Optimization of the Macrocyclic Tetrapeptide [D-Trp]CJ-15,208 to Prevent Stress-Induced Relapse of Cocaine-Seeking Behavior” (Molecules, 2025).

Protein sequences, listed by entry. Tags and fused reporters are not part of them. Lines headed by an entry give the natural chain unless they say otherwise; changes in a name come on top.
UniProt P41145: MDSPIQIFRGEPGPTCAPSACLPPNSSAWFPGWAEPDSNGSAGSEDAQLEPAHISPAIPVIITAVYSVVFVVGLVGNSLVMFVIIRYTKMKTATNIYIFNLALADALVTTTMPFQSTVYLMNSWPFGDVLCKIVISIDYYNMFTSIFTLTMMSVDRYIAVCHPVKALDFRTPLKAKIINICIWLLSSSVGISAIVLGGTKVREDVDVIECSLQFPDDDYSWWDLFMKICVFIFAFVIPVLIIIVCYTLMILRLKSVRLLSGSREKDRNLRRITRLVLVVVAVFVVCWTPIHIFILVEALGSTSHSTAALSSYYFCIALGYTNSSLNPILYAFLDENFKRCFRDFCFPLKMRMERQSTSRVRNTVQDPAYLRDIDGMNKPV

The target in this assay is hKOR (Homo sapiens, UniProt P41145). As to the kind of experiment: KOR cAMP assay using GloSensor-22F, agonist mode (KOR-CHO-GLO cells). In kind it is cell-based. The following applies: read-out: approximate IC80 concentration; inhibition of forskolin-stimulated cAMP. In general terms: Changes in cAMP serve as a functional read-out for many G protein-coupled receptors.

In the case of “(±)-trans-3,4-Dichloro-N-methyl-N-[2-(1-pyrrolidinyl)cyclohexyl]benzeneacetamide”, the IC80 came out at 10 nM.
